Experimental data taken from paper PMC12416277, “Phytochemical alkaloids orchestrate immunometabolism against viral infections” (National Science Review, 2025).

System: A549 cells
Experiment: Confocal analysis of filipin-stained cholesterol distribution in A549 cells
Type: cell-based

B1: IFN-β: interferon-β used to treat A549 cells (protein, UniProt P01574 22-187, looked up)
Interferon beta: MSYNLLGFLQRSSNFQCQKLLWQLNGRLEYCLKDRMNFDIPEEIKQLQQFQKEDAALTIYEMLQNIFAIFRQDSSSTGWNETIVENLLANVYHQINHLKTVLEEKLEKEDFTRGKLMSSLHLKRYYGRILHYLKAKEYSHCAWTIVRVEILRNFYFINRLTGYLRN
cholesterol distribution / lysosomal cholesterol accumulation: induced lysosome cholesterol accumulation
